Measurements: publication PMC2841013 (Biochemistry, 2010)

Amino acid sequences for entries named in this document (tags omitted). Residues count along the entry.
UniProt P05412, 252-315: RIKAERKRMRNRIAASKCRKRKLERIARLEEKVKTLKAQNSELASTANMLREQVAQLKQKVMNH

Target: JUN bZIP domain (human, UniProt P05412 252-315)
Experiment: circular dichroism

B1: MEQ bZIP domain (domain or fragment, Marek's disease virus, UniProt Q9DGW5 57-120, looked up)
chain: KQKLERRRKRNRDAARRRRRKQTDYVDKLHEACEELQRANEHLRKEIRDLRTECTSLRVQLACH
Which “Tm of the complex” value does the source give for B1 here?
Its value is 41.3 °C.
